Measured values from ChEMBL document CHEMBL1828598, “Discovery of gemfibrozil analogues that activate PPARα and enhance the expression of gene CPT1A involved in fatty acids catabolism” (Eur J Med Chem, 2011).
Activity calls are given as the source filed them. The rule behind the calls is not given here.

Each compound was assayed against T1, Peroxisome proliferator-activated receptor alpha (Homo sapiens) (UniProt Q07869) (assay: Agonist activity at Gal4-fused PPARalpha expressed in HEK293 cells after 18 hrs by dual luciferase reporter gene assay relative to gemfibrozil).
T1 sequence (whole entry): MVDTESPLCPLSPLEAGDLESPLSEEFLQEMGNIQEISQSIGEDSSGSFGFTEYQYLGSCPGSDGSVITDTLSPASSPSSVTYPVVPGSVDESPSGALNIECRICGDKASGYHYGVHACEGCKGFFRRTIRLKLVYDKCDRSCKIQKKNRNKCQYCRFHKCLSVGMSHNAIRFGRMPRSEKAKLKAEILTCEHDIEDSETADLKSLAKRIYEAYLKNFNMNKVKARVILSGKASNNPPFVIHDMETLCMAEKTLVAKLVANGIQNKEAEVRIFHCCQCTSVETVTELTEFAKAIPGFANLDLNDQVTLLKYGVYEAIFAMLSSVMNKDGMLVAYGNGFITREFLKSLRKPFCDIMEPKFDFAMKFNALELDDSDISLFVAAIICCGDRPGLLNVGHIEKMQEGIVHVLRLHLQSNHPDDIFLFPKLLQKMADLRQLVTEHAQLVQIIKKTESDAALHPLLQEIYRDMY
Type: functional, cell-based
Procedure, shortened: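 HEK293 cells were grown in DMEM with 10% FCS, penicillin/streptomycin, sodium pyruvate and nonessential amino acids at 37 °C, 5% CO2. The next day they were transfected in serum-free medium by calcium phosphate with GAL4-PPARα LBD (30 ng), firefly luciferase reporter (50 ng), renilla normalization vector (20 ng) and carrier DNA. Ligands were added 8 h later for 18 h. Efficacy is given as % of maximal gemfibrozil fold induction, from at least three separate experiments.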

Efficacy, inactive:
O=C(O)CCCCOc1ccc(Oc2ccccc2)cc1
O=C(O)CCCCOc1ccc(/N=N/c2ccccc2)cc1
CC(=O)c1ccc(OCCCC(C)(C)C(=O)O)cc1
CC(=O)c1ccc(OCCCCC(=O)O)cc1
